# Source: PubChem BioAssay AID2101 (National Center for Advancing Translational Sciences (NCATS), 2009)
# The list shows a part of the results, in another mix than the full data. Inconclusive results are not listed. The source made the active and inactive calls. Calls follow the shape of the dose curve; as a rule, active = well fitted inhibition curve with a large enough effect; inconclusive = small, poorly fitted or top-dose-only effect, or effect the other way, or another doubt; inactive = no such curve, though single readings can be large or run the other way.
# Biological target: Lysosomal acid glucosylceramidase (Homo sapiens) (UniProt P04062)
# Assay: qHTS Assay for Inhibitors and Activators of N370S glucocerebrosidase as a Potential Chaperone Treatment of Gaucher Disease;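 also: 0% = full enzyme activity and -100% = no enzyme basal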
# Conditions: N370S GC spleen homogenate, 4MU-glucoside fluorescence; at 59.4 µM (top of the series) unless noted
# Source text: NIH Chemical Genomics Center [NCGC]
# NIH Molecular Libraries Probe Production Centers Network [MLPCN]
# Assay Submitter (PI): Wei Zheng
# Glucocerebrosidase (GC) catalyzes the hydrolysis of beta-glucocerebroside to glucose and ceramide in lysosomes. Mutations in the glucocerebrosidase gene result in Gaucher disease, an autosomal recessive lysosomal storage disorder. Many of the mutations encountered in patients with Gaucher disease are missense alterations that may cause misfolding, decreased stability and/or mistrafficking of this lysosomal protein. […] These inhibitors include iminosugar analogs and three non-iminosugar inhibitors identified from a previous HTS of 62,000 compounds with the wild type recombinant enzyme. However, the enhancement of enzyme activity by the chaperone action of an enzyme inhibitor must be balanced against the direct inhibition of the enzyme. An enzyme activator could also function as a chaperone by binding to the enzyme and helping to correct its misfolding and mistrafficking. While activators for GC have not yet been identified, they may have better therapeutic potential than inhibitors. Therefore the discovery and development of chemical activators may provide a new strategy for the chaperone therapy.
# We have optimized a new assay using N370S mutant GC derived from the spleen of a Gaucher patient. […] In addition, the MLPCN compound library has expanded, which increases the chance of finding new and better probes.
# NCGC Assay Protocol Summary:
# This is a fluorogenic enzyme assay with 4-methylumbelliferyl-beta-D-glucopyranoside as the substrate and N370S glucocerebrosidase from human spleen homogenate as the enzyme preparation. Upon the hydrolysis of this fluorogenic substrate, the resulting product, […] which can be detected by a standard fluorescence plate reader. Data were normalized to the controls for basal activity (without enzyme) and 100% activity (with enzyme). The AC50 values were determined from concentration-response data modeled with the standard Hill equation.
# Assay buffer: 50 mM citric acid (titrated with potassium phosphate to pH 5.0), 100 mM potassium chloride, 10 mM sodium chloride, 1 mM magnesium chloride, 0.01% Tween-20.
# 1536-well assay protocol:
# (1) Add 2 ul/well of spleen homogenate (27 ug final)
# (2) Add 23 nL compounds in DMSO solution. The final titration was 0.5 nM to 58 uM.
# (3) Add 2 ul of substrate (1 mM final)
# (4) Incubate at 37C for 40 min.
# (5) Add 2 ul stop solution (1M NaOH and 1M Glycine mixture, pH 10)
# (6) Detect the assay plate in a ViewLux plate reader (PerkinElmer) with Ex=365 nm and Em=440nm.
# Keywords: Glucocerebrosidase, beta-glucosidase, Gaucher Disease, pharmacological chaperone, chaperone therapy, high throughput screening, glucocerebrosidase inhibitor, MLSMR, MLSCN, NIH Roadmap, qHTS and NCGC
row,Structure (SMILES),"activity change, negative = inhibition"
1,CCOC(=O)c1ccc(NP(C)(=O)Oc2ccc(OC)cc2)cc1 (configuration not stated),inactive: 0.538%
2,CCOP(C)(=S)SCC(=O)NC(C)C(=O)O (configuration not stated),inactive: -5.83%
3,CP(=O)(Nc1ccccn1)Oc1ccc(Cl)cc1 (configuration not stated),inactive: 5.89%
4,CP(=O)(Nc1ccc(SC(F)(F)F)cc1)Oc1ccc(Cl)cc1 (configuration not stated),inactive: 6.05%
5,Cc1cccc(C)c1OP(C)(=O)Nc1ccc(SC(F)(F)F)cc1 (configuration not stated),inactive: -10.9%
6,CP(=O)(Oc1ccccc1)OC(c1ccccc1)C(F)(F)F (configuration not stated),inactive: -2.02%
7,CP(=O)(NC(=O)Nc1ccccc1)Oc1ccccc1 (configuration not stated),inactive: -5.29%
8,CCc1ccc(OP(C)(=O)N2CCN(c3ccc([N+](=O)[O-])cc3)CC2)cc1 (configuration not stated),inactive: -18.5%
9,Cc1cc(C)cc(OP(C)(=O)Nc2ccc(SC(F)(F)F)cc2)c1 (configuration not stated),inactive: 10.8%
10,CP(=S)(Nn1cnnc1)Oc1ccccc1 (configuration not stated),inactive: -0.611%
11,CP(=O)(Nc1ccccc1Br)Oc1ccccc1 (configuration not stated),inactive: 5.61%
12,COc1ccccc1OP(C)(=O)Nc1ccccc1 (configuration not stated),inactive: -1.73%
13,COc1ccccc1OP(C)(=O)Nc1ccc(C)cc1 (configuration not stated),inactive: 4.46%
14,Cc1ccc(NP(C)(=O)Oc2ccccc2)c(C)c1 (configuration not stated),inactive: 29%
15,CCOC(=O)c1ccc(NP(C)(=O)Oc2ccccc2)cc1 (configuration not stated),inactive: 12.4%
16,Cc1cc(C)cc(OP(C)(N)=O)c1 (configuration not stated),inactive: 10.3%
17,COc1ccccc1OP(C)(=O)Nc1cc(Cl)ccc1C (configuration not stated),inactive: -0.343%
18,COc1ccc(OP(C)(=O)Nc2cccc(F)c2)cc1 (configuration not stated),inactive: 5.9%
19,O=C(O)C1(O)c2ccccc2-c2ccccc21,inactive: -0.309%
20,O=[N+]([O-])c1cc([N+](=O)[O-])c(Nc2cccnc2)c([N+](=O)[O-])c1,inactive: -15.5%
21,O=[N+]([O-])c1ccc2c(c1)C=Nc1ccccc1O2,inactive: -2.48%

row,Structure (SMILES),"activity change, negative = inhibition"
1,CC(C)(C)c1ccc(OP(C)(=O)Nc2ccc(SC(F)(F)F)cc2)cc1 (configuration not stated),inactive: 24.2%
2,Cc1cccc(C)c1OP(C)(N)=O (configuration not stated),inactive: 1.46%
3,O=C(O)C(O)(c1ccccc1)c1ccccc1,inactive: -6.16%
4,O=[N+]([O-])[O-].[NH4+],inactive: 10.2%
5,CCN(CC)CCCOC(=O)C(O)(c1ccccc1)c1ccccc1,inactive: -15.7%
6,Cc1ccc(C)c(NP(C)(=O)Oc2ccccc2)c1 (configuration not stated),inactive: 0.464%
7,Cc1cc(C)cc(OP(C)(=O)Nc2ccccn2)c1 (configuration not stated),inactive: 12.3%
8,CP(=O)(Nc1cccc(Br)c1)Oc1ccccc1 (configuration not stated),inactive: 1.19%
9,COc1ccccc1OP(C)(=O)Nc1cccc(Br)c1 (configuration not stated),inactive: -1.7%
10,CCOC(=O)c1ccc(NP(C)(=O)Oc2cc(C)cc(C)c2)cc1 (configuration not stated),inactive: 14.7%
11,Cc1cc(C)cc(OP(C)(=O)Nc2ccc(C)cc2C)c1 (configuration not stated),inactive: -12.2%
12,O=[N+]([O-])OCC(CO[N+](=O)[O-])(CO[N+](=O)[O-])CO[N+](=O)[O-],inactive: 13.7%
13,Cc1ccc([N+](=O)[O-])cc1[N+](=O)[O-],inactive: 1.83%
14,O=[N+]([O-])c1cccc([N+](=O)[O-])c1,inactive: 6.72%
15,CN1CCCCC1COC(=O)C1(O)c2ccccc2CCc2ccccc21 (configuration not stated),inactive: -11.2%
16,COc1ccccc1OP(C)(=O)Nc1c(C)cccc1C (configuration not stated),inactive: 7.01%
17,CCCOc1ccc(NP(C)(=O)Oc2ccc(Cl)cc2)cc1 (configuration not stated),inactive: -10.4%
18,CP(=O)(Nc1ccc(SC(F)(F)F)cc1)Oc1ccccc1 (configuration not stated),inactive: -12%
19,CC1=C2N=C(C=C3N=C(C(C)=C4[N-][C@@](C)([C@@H]5N=C1[C@](C)(CCC(=O)NC[C@@H](C)OP(=O)([O-])O[C@H]1[C@@H](O)[C@@H](n6cnc7cc(C)c(C)cc76)O[C@@H]1CO)[C@H]5CC(N)=O)[C@@](C)(CC(N)=O)[C@@H]4CCC(N)=O)[C@@](C)(CC(N)=O)[C@@H]3CCC(N)=O)C(C)(C)[C@@H]2CCC(N)=O.[C-]#N.[Co+3],inactive: -8.48%
20,O=[N+]([O-])c1cc([N+](=O)[O-])c(Nc2nnnn2CCO)c([N+](=O)[O-])c1,inactive: -12.9%
21,Cc1nc2ccc3ccccc3c2s1.O=[N+]([O-])c1cc([N+](=O)[O-])c(O)c([N+](=O)[O-])c1,inactive: 0.901% [at 2.35 µM]

row,Structure (SMILES),"activity change, negative = inhibition"
1,O=[N+]([O-])c1cc([N+](=O)[O-])c(-n2nnc3ccccc32)c([N+](=O)[O-])c1,inactive: -3.92%
2,CC(C)N(CCCl)C(C)C,inactive: -2.98%
3,CP(=O)(Nc1ccc2c(c1)OCCO2)Oc1ccccc1 (configuration not stated),inactive: 0.0407%
4,Cc1ccccc1NP(C)(=O)Nc1ccccc1C,inactive: 4.07%
5,CCN(CCCl)Cc1ccccc1C,inactive: 27.8%
6,[NH4+].[O-][Cl+3]([O-])([O-])[O-],inactive: 7.09%
7,CP(=O)(Nc1ccc(SC(F)(F)F)cc1)Oc1ccc(F)cc1 (configuration not stated),inactive: -5.87%
8,CCOP(C)(=S)SCC(=O)NC(C)(CC)C(=O)O (configuration not stated),inactive: 1.91%
9,CCOP(=O)(CC)OCC,inactive: -5.72%
10,Cc1c([N+](=O)[O-])cccc1[N+](=O)[O-],inactive: 8.73%
11,Cc1ccc([N+](=O)[O-])c([N+](=O)[O-])c1,inactive: -1.8%
12,Cc1cc(-c2cccc3ccccc23)c(C)cn1.O=[N+]([O-])c1cc([N+](=O)[O-])c(O)c([N+](=O)[O-])c1,inactive: -13.4%
13,COc1ccc(OP(C)(=O)Nc2cccc(Br)c2)cc1 (configuration not stated),inactive: 1.88%
14,CN(C)CCOC(=O)C(O)(c1ccccc1)C1CCCCC1 (configuration not stated),inactive: -4.15%
15,COc1ccc(NP(C)(=O)Oc2ccccc2OC)cc1 (configuration not stated),inactive: -0.289%
16,CCN(CC)CCCOC(=O)C(O)(c1ccccc1)C1CCCCC1 (configuration not stated),inactive: -0.934%
17,CP(=O)(Nc1ccccc1)Oc1ccc(F)cc1 (configuration not stated),inactive: -7.81%
18,CCCCCOc1ccc(NP(C)(=O)Oc2ccc(Cl)cc2Cl)cc1 (configuration not stated),inactive: -11%
19,CCC(C)(OO)OOC(C)(CC)OO (configuration not stated),inactive: 10.6%
20,Cc1cccc([N+](=O)[O-])c1[N+](=O)[O-],inactive: 1.85%
